From PubChem BioAssay AID743287 (Broad Institute, 2014)
Only a part is listed here, and it is no random draw. Calls of active or inactive are those of the source.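 How the source made its calls: active means lowest replicate activation of at least 40%, so every replicate reaches that level; inactive means the rest.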

assay: GLuc luminescence reporter in INS-1E cells, primary screen for activators of glucose-dependent secretion of insulin (AID 743287); conditions: INS-1E GLuc reporter insulin secretion, 2-3 h, at 16.6 µM, active compounds read high;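 further: 0% = median of neutral control wells and 100% = median of IBMX positive control wells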

SMILES	activation
CCC(=O)N(c1ccccc1)C1(COC)CCN(CCc2cccs2)CC1	inactive: 2.4%
CCC(=O)N(c1ccccc1)C1(COC)CCN(CCn2nnn(CC)c2=O)CC1	inactive: 0.997%
